Measurements as given in patent US20210147795A1, “LAYERED BODY” (priority 2019, published 2021).

Experiment: Diffusion amount of dextran of different molecular weights from slow release gel layer
Format: physicochemical
Conditions: dextran 1% by weight in gel layer, 2 hours at 37° C. in PBS
Description: Liquid A (with dextran) was prepared by mixing the Liquid A with dextran (molecular weight 570 Da, 10 KDa, and 500 KDa), which was intended for drugs, to reach 1% by weight.
Equal amounts of Liquid A (with dextran) and Liquid B were added to an insert, and a gel layer was prepared by gelation and incubated in wells with PBS ( - - - ) in a microwell plate for 2 hours at 37° C. conditions.
The PBS( - - - ) incubated above was collected, and the fluorescence intensity was measured by a plate reader. The molecular weight of dextran diffused from the gel was calculated from the fluorescence intensity. In Table 5, “Good” indicates a diffusion amount of more than 1.5×10 ^−8 mol/l and “Fair” indicates a diffusion amount of 1.0×10^−8 mol/l. The diffusion amount was more than 1.5×10^−8 mol/l for a molecular weight of 570 Da.

Substance | Diffusion amount measurement result, Determination | diffusion amount
dextran [10 kDa] | Fair (“Fair” indicates a diffusion amount of 1.0×10^−8 mol/l) | –
dextran [500 kDa] | Fair (“Fair” indicates a diffusion amount of 1.0×10^−8 mol/l) | –
dextran [570 Da] | Good (“Good” indicates a diffusion amount of more than 1.5×10 ^−8 mol/l) | more than 1.5×10^−8 mol/l
